These results are taken from PubChem BioAssay AID441 (NMMLSC, 2006).

The chains behind the UniProt entries cited, without tags or fusion partners.
UniProt P25090, whole entry: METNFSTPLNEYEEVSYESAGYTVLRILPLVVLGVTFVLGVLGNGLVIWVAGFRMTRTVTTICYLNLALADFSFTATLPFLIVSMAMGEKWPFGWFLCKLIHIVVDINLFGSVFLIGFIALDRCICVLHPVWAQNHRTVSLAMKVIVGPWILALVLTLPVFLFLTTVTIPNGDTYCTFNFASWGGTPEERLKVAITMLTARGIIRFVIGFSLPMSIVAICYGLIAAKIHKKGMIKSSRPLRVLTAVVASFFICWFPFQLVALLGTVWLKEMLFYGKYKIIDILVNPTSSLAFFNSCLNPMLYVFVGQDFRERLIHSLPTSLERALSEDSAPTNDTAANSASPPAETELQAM

Molecules are shown by their SMILES. Only a part is listed here, and it is no random draw. Some of these compounds have results that are not shown, active ones among them. Activity calls are given as the source filed them. No stated cut-off is given here; in the data, active means inhibition above about 30%; inconclusive means no clear call, values can overlap the other calls; inactive means below that.

For the test, the target named is N-formyl peptide receptor 2 (Homo sapiens) (UniProt P25090). In words: small molecules displacing FPRL1 fluorescent ligand – cell-based, FPR counter-screen, flow cytometry, primary screen (AID 441).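 Further: 0% = buffer alone and 100% = receptor blocker peptide.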 Particulars: FPRL1-expressing cells, fluorescent ligand binding inhibition, active compounds read high, concentration not given here.
For `O=C(OC1CN2CCC1CC2)C(CO)(c1ccccc1)c1ccccc1` (stereo unspecified), the inhibition is inactive: -0.2%.
